One molecule from US20170266133A1 (priority 2014, published 2017) can be followed below.

Protein sequences, listed by entry. Tags and fused reporters are not part of them.
UniProt P31645, whole entry: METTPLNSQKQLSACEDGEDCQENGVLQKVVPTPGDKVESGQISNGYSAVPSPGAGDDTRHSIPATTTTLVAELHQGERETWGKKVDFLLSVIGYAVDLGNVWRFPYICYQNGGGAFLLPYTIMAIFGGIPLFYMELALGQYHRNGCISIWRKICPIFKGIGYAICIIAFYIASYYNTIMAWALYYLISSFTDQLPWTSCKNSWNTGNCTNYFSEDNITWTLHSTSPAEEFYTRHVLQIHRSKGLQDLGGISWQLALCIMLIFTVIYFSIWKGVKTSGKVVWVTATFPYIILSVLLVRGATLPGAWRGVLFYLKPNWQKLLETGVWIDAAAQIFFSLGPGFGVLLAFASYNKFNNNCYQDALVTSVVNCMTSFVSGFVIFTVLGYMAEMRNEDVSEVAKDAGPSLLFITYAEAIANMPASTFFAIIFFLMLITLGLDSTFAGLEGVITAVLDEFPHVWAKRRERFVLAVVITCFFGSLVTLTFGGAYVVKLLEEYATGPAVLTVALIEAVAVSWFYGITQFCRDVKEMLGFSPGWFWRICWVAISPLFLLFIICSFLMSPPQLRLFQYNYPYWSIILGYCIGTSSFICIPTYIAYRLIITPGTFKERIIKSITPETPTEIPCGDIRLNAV

The target of the assay is human serotonin transporters (SERT) (Homo sapiens, UniProt P31645). Nature of the assay: serotonin uptake inhibition. Type of assay: biochemical. From the text: Dasotraline [(1R,4S)-4-(3,4-Dichlorophenyl)-1,2,3,4-tetrahydronaphthalen-1-amine] is a novel compound with DNRI pharmacology.

What is called IC50 is the concentration that gives 50% inhibition. A low value points to greater potency in that assay. Regarding `N[C@@H]1CC[C@@H](c2ccc(Cl)c(Cl)c2)c2ccccc21` [dasotraline, (1R,4S)-4-(3,4-Dichlorophenyl)-1,2,3,4-tetrahydronaphthalen-1-amine], it took 15 nM to reach half-maximal inhibition (IC50).
